For two compounds, Ki results are on record in US20100029622A1, “MICROEMULSIONS” (NEUROSCIENZE PHARMANESS S.C.A.R.L., priority 2008, published 2010).

Molecules are shown by their SMILES. pKi: −log10 of the molar value. Some results are limits rather than exact numbers.

For this test, the target named is opioidergic receptors δ (Mus musculus, UniProt P32300). In words: Radioreceptorial binding, receptors δ ([3H]-DPDPE displacement, brain membranes). The note with it: read-out: Ki δ, 1 nM [3H]-DPDPE, 25° C. Further details: species or system mice.

By pKi is commonly meant the negative decadic logarithm of the Ki, by convention in mol/L. As for `CCC(=O)N1CCC2CCC(C1)N2CC=C(C)c1ccc(Cl)c2ccccc12` (centres unmarked), the pKi is 5.70. With `CCC(=O)N1C2CCC1CN(CC=C(C)c1ccc(Cl)c3ccccc13)CC2` (centres unmarked) the figure was below 5.30.
